Amino acid sequences for entries named in this document (tags omitted).
UniProt Q920D2, whole entry: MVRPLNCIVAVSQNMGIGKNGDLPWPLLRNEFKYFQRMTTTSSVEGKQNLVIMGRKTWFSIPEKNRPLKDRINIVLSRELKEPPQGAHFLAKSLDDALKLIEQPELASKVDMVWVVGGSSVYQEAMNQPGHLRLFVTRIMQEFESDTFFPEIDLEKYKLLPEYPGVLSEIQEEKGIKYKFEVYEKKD

In patent publication US6962920B2, “Pyrimidine derivatives and methods of making and using these derivatives” (Duquesne University of the Holy Ghost, priority 1992, dated 2005):

Key:
K-562 = test: NCI in vitro anti-cancer activity
SK-MEL-5 = test: NCI in vitro anti-cancer activity, Melanoma; format: cell-based
DU-145 = test: NCI in vitro anti-cancer activity, Prostate Cancer
PC-3 = test: NCI in vitro anti-cancer activity, Prostate Cancer
NCI/ADR-RES = test: NCI in vitro anti-cancer activity, breast cancer
OVCAR-8 = test: NCI in vitro anti-cancer activity, Ovarian Cancer
OVCAR-4 = test: NCI in vitro anti-cancer activity, Ovarian Cancer
OVCAR-5 = test: NCI in vitro anti-cancer activity, Ovarian Cancer
OVCAR-3 = test: NCI in vitro anti-cancer activity, Ovarian Cancer
SK-OV-3 = test: NCI in vitro anti-cancer activity, Ovarian Cancer
IGROV1 = test: NCI in vitro anti-cancer activity, Ovarian Cancer
T-47D = test: NCI in vitro anti-cancer activity, Breast Cancer; conditions: Table 29, Breast Cancer
MCF7 = test: NCI in vitro anti-cancer activity, Breast Cancer
MDA-MB-231/ATCC = test: NCI in vitro anti-cancer activity, Breast Cancer
HS 578T = test: NCI in vitro anti-cancer activity, Breast Cancer
BT-549 = test: NCI in vitro anti-cancer activity, Breast Cancer; conditions: Table 29, Breast Cancer
MDA-N = test: NCI in vitro anti-cancer activity, Breast Cancer
MDA-MB-435 = test: NCI in vitro anti-cancer activity, Breast Cancer
SNB-75 = test: NCI in vitro anti-cancer activity, CNS Cancer; conditions: SNB-75
U251 = test: NCI in vitro anti-cancer activity, CNS Cancer
SF-268 = test: NCI in vitro anti-cancer activity, CNS Cancer
SNB-19 = test: NCI in vitro anti-cancer activity, CNS Cancer
SF-295 = test: NCI in vitro anti-cancer activity, CNS Cancer
SF-539 = test: NCI in vitro anti-cancer activity, CNS Cancer
EKVX = test: NCI in vitro anti-cancer activity, Non-Small Cell Lung Cancer
NCI-H226 = test: as above
A549/ATCC = test: as above
HOP-92 = test: as above
NCI-H522 = test: as above
NCI-H23 = test: as above
RL DHFR = RL DHFR (Rattus norvegicus, UniProt Q920D2); test: Inhibition of DHFR from rat liver; format: biochemical
SK-MEL-28 = test: NCI in vitro anti-cancer activity, Melanoma
LOX IMVI = test: NCI in vitro anti-cancer activity, Melanoma
UACC-62 = test: NCI in vitro anti-cancer activity, Melanoma
MALME-3M = test: NCI in vitro anti-cancer activity, Melanoma
M14 = test: NCI in vitro anti-cancer activity, Melanoma
UACC-257 = test: NCI in vitro anti-cancer activity, Melanoma
SK-MEL-2 = test: NCI in vitro anti-cancer activity, Melanoma
COLO 205 = test: NCI in vitro anti-cancer activity, Colon Cancer
HCC-2998 = test: NCI in vitro anti-cancer activity, Colon Cancer
HT29 = test: NCI in vitro anti-cancer activity, Colon Cancer
HCT-15 = test: NCI in vitro anti-cancer activity, Colon Cancer
SW-620 = test: NCI in vitro anti-cancer activity, Colon Cancer
KM12 = test: NCI in vitro anti-cancer activity, Colon Cancer
HCT-116 = test: NCI in vitro anti-cancer activity, Colon Cancer
RXF 393 = test: NCI in vitro anti-cancer activity, Renal Cancer
786-0 = test: NCI in vitro anti-cancer activity, Renal Cancer
ACHN = test: NCI in vitro anti-cancer activity, Renal Cancer
UO-31 = test: NCI in vitro anti-cancer activity, Renal Cancer
TK-10 = test: NCI in vitro anti-cancer activity, Renal Cancer
SN12C = test: NCI in vitro anti-cancer activity, Renal Cancer; conditions: Table 29, Renal Cancer
CAKI-1 = test: NCI in vitro anti-cancer activity, Renal Cancer
NCI-H460 = test: NCI in vitro anti-cancer activity, Non-Small Cell Lung Cancer; format: cell-based
SR = test: NCI in vitro anti-cancer activity, Leukemia
CCRF-CEM = test: NCI in vitro anti-cancer activity, Leukemia
HL-60 (TB) = test: NCI in vitro anti-cancer activity, Leukemia
MOLT-4 = test: NCI in vitro anti-cancer activity, Leukemia
RPMI-8226 = test: NCI in vitro anti-cancer activity, Leukemia
A498 = test: NCI in vitro anti-cancer activity, renal cancer; conditions: Table 29, Renal Cancer
HOP-62 = test: NCI in vitro anti-cancer activity, Non-Small Cell Lung Cancer; conditions: Table 31, Non-Small Cell Lung Cancer
[1] = Table 29, Non-Small Cell Lung Cancer
[2] = Table 31, Non-Small Cell Lung Cancer

SMILES: Cc1nc(N)nc2c1c(CCc1ccccc1)cn2Cc1ccccc1
- GI50 (K-562; Table 29, Leukemia): > 100 µM
- GI50 (SK-MEL-5; Table 29, Melanoma): > 100 µM
- GI50 (DU-145; Table 29, Prostate Cancer): > 100 µM
- GI50 (PC-3; Table 29, Prostate Cancer): 38.1 µM
- GI50 (NCI/ADR-RES; NCI/ADR-RES breast cancer cell line): very selective
- GI50 (NCI/ADR-RES; Table 29, Breast Cancer, NCI/ADRRES): 2.23 µM
- GI50 (OVCAR-8; Table 29, Ovarian Cancer): > 100 µM
- GI50 (OVCAR-4; Table 29, Ovarian Cancer): 56.3 µM
- GI50 (OVCAR-5; Table 29, Ovarian Cancer): > 100 µM
- GI50 (OVCAR-3; Table 29, Ovarian Cancer): > 100 µM
- GI50 (SK-OV-3; Table 29, Ovarian Cancer): > 100 µM
- GI50 (IGROV1; Table 29, Ovarian Cancer): > 100 µM
- GI50 (T-47D): 0.504 µM
- GI50 (MCF7; Table 29, Breast Cancer): 50 µM
- GI50 (MDA-MB-231/ATCC; Table 29, Breast Cancer): 52.2 µM
- GI50 (HS 578T; Table 29, Breast Cancer): > 100 µM
- GI50 (BT-549): > 100 µM
- GI50 (MDA-N; Table 29, Breast Cancer): > 100 µM
- GI50 (MDA-MB-435; Table 29, Breast Cancer): > 100 µM
- GI50 (SNB-75; Table 29, CNS Cancer): > 100 µM
- GI50 (U251; Table 29, CNS Cancer): 12.2 µM
- GI50 (SF-268; Table 29, CNS Cancer): > 100 µM
- GI50 (SNB-19; Table 29, CNS Cancer): > 100 µM
- GI50 (SF-295; Table 29, CNS Cancer): > 100 µM
- GI50 (SF-539; Table 29, CNS Cancer): > 100 µM
- GI50 (EKVX; [1]): 6.45 µM
- GI50 (NCI-H226; [1]): > 100 µM
- GI50 (A549/ATCC; [1]): > 100 µM
- GI50 (HOP-92; [1]): 16 µM
- GI50 (NCI-H522; [1]): > 100 µM
- GI50 (NCI-H23; [1]): > 100 µM
- IC50 (RL DHFR; read-out: Inhibitory Concentrations (IC50) RL DHFR, Table 26): 97 µM
- GI50 (SK-MEL-28; Table 29, Melanoma): 39.3 µM
- GI50 (LOX IMVI; Table 29, Melanoma): > 100 µM
- GI50 (UACC-62; Table 29, Melanoma): 79.4 µM
- GI50 (MALME-3M; Table 29, Melanoma): > 100 µM
- GI50 (M14; Table 29, Melanoma): > 100 µM
- GI50 (UACC-257; Table 29, Melanoma): 31.4 µM
- GI50 (SK-MEL-2; Table 29, Melanoma): > 100 µM
- GI50 (COLO 205; Table 29, Colon Cancer): > 100 µM
- GI50 (HCC-2998; Table 29, Colon Cancer): > 100 µM
- GI50 (HT29; Table 29, Colon Cancer): > 100 µM
- GI50 (HCT-15; Table 29, Colon Cancer): 25.2 µM
- GI50 (SW-620; Table 29, Colon Cancer): 41.6 µM
- GI50 (KM12; Table 29, Colon Cancer): > 100 µM
- GI50 (HCT-116; Table 29, Colon Cancer): > 100 µM
- GI50 (RXF 393; RXF 393, Renal Cancer): very selective
- GI50 (RXF 393; Table 29, Renal Cancer, RXF 393): 4.81 µM
- GI50 (786-0; Table 29, Renal Cancer): > 100 µM
- GI50 (ACHN; Table 29, Renal Cancer): 44 µM
- GI50 (UO-31; Table 29, Renal Cancer): > 100 µM
- GI50 (TK-10; Table 29, Renal Cancer): > 100 µM
- GI50 (SN12C): > 100 µM
- GI50 (CAKI-1; Table 29, Renal Cancer): 87.9 µM
- GI50 (NCI-H460; [1]): > 100 µM
- GI50 (SR; Table 29, Leukemia): > 100 µM
- GI50 (CCRF-CEM; CCRF-CEM leukemia cell line): very selective
- GI50 (CCRF-CEM; Table 29, Leukemia, CCRF-CEM): 4.72 µM
- GI50 (HL-60 (TB); Table 29, Leukemia): 20.1 µM
- GI50 (MOLT-4; Table 29, Leukemia): > 100 µM
- GI50 (RPMI-8226; Table 29, Leukemia): > 100 µM
- GI50 (A498): 14.3 µM

SMILES: Nc1nc(N)c2c(CNc3cccc4cc5ccccc5cc34)coc2n1
- GI50 (K-562; Table 31, Leukemia): 33.8 µM
- GI50 (SK-MEL-5; Table 31, Melanoma): 20.5 µM
- GI50 (DU-145; Table 31, Prostate Cancer): 14.7 µM
- GI50 (PC-3; Table 31, Prostate Cancer): 15.1 µM
- GI50 (NCI/ADR-RES; Table 31, Breast Cancer, NCI/ADRRES): 22.3 µM
- GI50 (OVCAR-8; Table 31, Ovarian Cancer): 14.8 µM
- GI50 (OVCAR-4; Table 31, Ovarian Cancer): 11.4 µM
- GI50 (OVCAR-5; Table 31, Ovarian Cancer): 31.1 µM
- GI50 (OVCAR-3; Table 31, Ovarian Cancer): 16.5 µM
- GI50 (SK-OV-3; Table 31, Ovarian Cancer): 17.2 µM
- GI50 (IGROV1; Table 31, Ovarian Cancer): 17.5 µM
- GI50 (MCF7; Table 31, Breast Cancer): 12 µM
- GI50 (MDA-MB-231/ATCC; Table 31, Breast Cancer): 17.9 µM
- GI50 (HS 578T; Table 31, Breast Cancer): 12.8 µM
- GI50 (MDA-N; Table 31, Breast Cancer): 28.8 µM
- GI50 (MDA-MB-435; Table 31, Breast Cancer): 19.1 µM
- GI50 (SNB-75; Table 31, CNS Cancer): 3.61 µM
- GI50 (U251; Table 31, CNS Cancer): 14.5 µM
- GI50 (SF-268; Table 31, CNS Cancer): 14.9 µM
- GI50 (SNB-19; Table 31, CNS Cancer): 13.1 µM
- GI50 (SF-295; Table 31, CNS Cancer): 19 µM
- GI50 (SF-539; Table 31, CNS Cancer): 22.3 µM
- GI50 (EKVX; [2]): 14.5 µM
- GI50 (NCI-H226; [2]): 15.3 µM
- GI50 (A549/ATCC; [2]): 15.2 µM
- GI50 (HOP-92; [2]): 14.6 µM
- GI50 (NCI-H522; [2]): 14.7 µM
- GI50 (HOP-62): 12.4 µM
- GI50 (NCI-H23; [2]): 17.5 µM
- % inhibition RL DHFR (RL DHFR; @ 51 μM): 37% @ 51 μM
- GI50 (SK-MEL-28; Table 31, Melanoma): 28.1 µM
- GI50 (LOX IMVI; Table 31, Melanoma): 16.6 µM
- GI50 (UACC-62; Table 31, Melanoma): 16.7 µM
- GI50 (MALME-3M; Table 31, Melanoma): 6.74 µM
- GI50 (M14; Table 31, Melanoma): 25.9 µM
- GI50 (UACC-257; Table 31, Melanoma): 18.3 µM
- GI50 (SK-MEL-2; Table 31, Melanoma): 29.9 µM
- GI50 (COLO 205; Table 31, Colon Cancer): 30.2 µM
- GI50 (HCC-2998; Table 31, Colon Cancer): 19.1 µM
- GI50 (HT29; Table 31, Colon Cancer): 24.6 µM
- GI50 (HCT-15; Table 31, Colon Cancer): 30.5 µM
- GI50 (SW-620; Table 31, Colon Cancer): 25.6 µM
- GI50 (KM12; Table 31, Colon Cancer): 26.5 µM
- GI50 (HCT-116; Table 31, Colon Cancer): 16.8 µM
- GI50 (RXF 393; Table 31, Renal Cancer, RXF 393): 2.98 µM
- GI50 (786-0; Table 31, Renal Cancer): 10.6 µM
- GI50 (ACHN; Table 31, Renal Cancer): 18.1 µM
- GI50 (UO-31; Table 31, Renal Cancer): 23.3 µM
- GI50 (TK-10; Table 31, Renal Cancer): 19.5 µM
- GI50 (CAKI-1; Table 31, Renal Cancer): 17.8 µM
- GI50 (NCI-H460; [2]): 13.7 µM
- GI50 (SR; Table 31, Leukemia): 8.36 µM
- GI50 (CCRF-CEM; Table 31, Leukemia, CCRF-CEM): 16.6 µM
- GI50 (HL-60 (TB); Table 31, Leukemia): 15.9 µM
- GI50 (MOLT-4; Table 31, Leukemia): 20.6 µM
- GI50 (RPMI-8226; Table 31, Leukemia): 29.8 µM
